Earlier results, collected in patent US20240100008A1, “ADMINISTRATION OF GLYCEROL TRIBENZOATE AND GLYCEROL PHENYLBUTYRATE FOR TREATMENT OF NEURODEGENERATIVE AND UREA CYCLE DISORDERS” (Rush University Medical Center, priority 2020, published 2024).

Conditions: in vivo

glyceryl dibenzoate
release form of sodium benzoate: sustained-release and a slow-release form
